Amino acid sequences for entries named in this document (tags omitted). A change or cut given only in a name is not applied to a line headed by its entry.
UniProt Q06187: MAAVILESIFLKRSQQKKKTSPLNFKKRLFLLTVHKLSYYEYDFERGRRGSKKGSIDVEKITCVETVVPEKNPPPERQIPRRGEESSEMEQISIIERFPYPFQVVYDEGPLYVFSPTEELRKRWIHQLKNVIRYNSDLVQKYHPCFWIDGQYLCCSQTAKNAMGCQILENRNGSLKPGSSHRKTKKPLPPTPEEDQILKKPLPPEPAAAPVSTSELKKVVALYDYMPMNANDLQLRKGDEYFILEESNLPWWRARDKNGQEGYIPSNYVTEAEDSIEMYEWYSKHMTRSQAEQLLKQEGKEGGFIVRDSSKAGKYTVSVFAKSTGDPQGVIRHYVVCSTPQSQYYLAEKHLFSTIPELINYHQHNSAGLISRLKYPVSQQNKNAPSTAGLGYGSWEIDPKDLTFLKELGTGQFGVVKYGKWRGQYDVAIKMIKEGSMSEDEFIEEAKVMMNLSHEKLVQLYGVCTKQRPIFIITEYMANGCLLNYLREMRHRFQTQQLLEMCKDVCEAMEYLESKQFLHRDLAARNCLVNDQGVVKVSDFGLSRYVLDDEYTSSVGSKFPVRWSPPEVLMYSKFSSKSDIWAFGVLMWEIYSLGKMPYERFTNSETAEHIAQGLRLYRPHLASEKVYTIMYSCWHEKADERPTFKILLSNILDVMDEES

In patent US20160045503A1, “FORMULATIONS CONTAINING REVERSIBLE COVALENT COMPOUNDS” (PRINCIPIA BIOPHARMA INC., priority 2012, published 2016):

Target: human recombinant Btk (Homo sapiens, UniProt Q06187)
Assay: Btk Enzymatic Activity Assay (Caliper-based kinase assay)
Assay type: biochemical

Substance | IC50 [nM]
(R)-2-(3-(4-amino-3-(4-(2,3-difluorophenoxy)phenyl)-1H-pyrazolo[3,4-d]pyrimidin-1-yl)piperidine-1-carbonyl)-3-cyclopropylacrylamide [Cpd 35A] | 4.4
(R)-2-(3-(4-amino-3-(4-(2,6-difluorophenoxy)phenyl)-1H-pyrazolo[3,4-d]pyrimidin-1-yl)piperidine-1-carbonyl)-3-cyclopropylacrylamide [Cpd 36A] | 4.3
